Only some compounds are listed: those with a hit (about 16% of all), similar ones and a draw of the others.
TDP1 cell CPT – DT40-hTDP1 cell growth loss with CPT | chicken DT40 Tdp1-/-;hTDP1 cells + 20 nM CPT, ATP luminescence, 48 h | 12% of 420,000 active | Potency, µM (titrated, usually from 46.2 µM), for inactives: at the top dose activity change, negative = growth inhibition, usual class: inhibitors; note: potency is the fitted concentration of half-maximal effect; % is set by controls: 0 for no effect and ±100 for the full control effect; nearly all actives have a fitted effect of over 55% in size
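Chicken DT40 Tdp1-/- cells stably complemented with human TDP1 were seeded at 400 cells/well in medium containing 20 nM camptothecin, exposed to pin-transferred compounds, and grown at 37 °C for at least 48 hr. Viability was read as ATP luminescence.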
DT40 TDP1 no CPT – qHTS for Inhibitors of human tyrosyl-DNA phosphodiesterase 1 (TDP1): qHTS in cells in absence of CPT; DT40 Tdp1-/- hTDP1 cells, no CPT, ATP luminescence, 48 h; Potency, µM (titrated, usually from 46.2 µM), for inactives: top-dose activity change, negative = growth inhibition, usual class: inhibitors; 15% of 420,000 active; AID 686978, 2013; note: potency is the fitted concentration of half-maximal effect; % is set by controls: 0 for no effect and ±100 for the full control effect; nearly all actives have a fitted effect of over 55% in size
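Camptothecin absent (DMSO only). Human TDP1-complemented DT40 knockout cells, 400 cells/well, 37 °C for minimum 48 hr; ATP measured via CellTiter-Glo, 30 min dark incubation, luminescence.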
miR-21 reporter – raises the signal of a miR-21 reporter | HeLa miR-21 FLuc reporter, luciferase, 48 h | Potency, µM (doses to about 38.3 µM), without a hit: at the top dose reporter change, positive = more light | 340,000 tested, under 10 active | AID 2288; active = well fitted rising curve with a large enough effect; inconclusive = small, poorly fitted or top-dose-only effect; inactive = no such curve, though single readings can be large or run the other way;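 note: % of control where 0% means no effect; miR-21 action dims this reporter so a rising signal means less miR-21 action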
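Luminescence from a firefly luciferase reporter carrying a miR-21 binding site downstream, stably expressed under a CMV promoter in HeLa cells that make miR-21 endogenously, reports miRNA modulation after 48 h compound exposure up to approximately 40uM final.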
TDP1 inh – TDP1 (human) enzyme inhibition; Potency, µM (top dose mostly 130 µM), for the others: top-dose activity change, negative = inhibition, most hits filed as inhibitors; recombinant TDP1, AlphaScreen DNA substrate cleavage; Q9NUW8; 0.28% of 350,000 active; note: potency is the fitted concentration of half-maximal effect; % is set by controls: 0 for no effect and ±100 for the full control effect; nearly all actives have a fitted effect of over 40% in size
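AlphaScreen read-out: signal falls as enzyme removes the 3' tyrosine-FITC from a 5'-biotinylated DNA oligo (15 nM, 5 min, RT). Enzyme was E. coli-made recombinant Tdp1 at 1 nM, exposed to compound for 15 min beforehand; beads 10 ug/ml, 10 min.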
uPA surface inh – blocks generation of uPA at the cell surface | cell surface uPA generation assay, qHTS | Potency, µM (top dose mostly 38.3 µM), inactives show at the top dose activity change, negative = inhibition, actives largely listed as inhibitors | 0.31% of 330,000 active | AID 540303; active = well fitted inhibition curve with a large enough effect; inconclusive = small, poorly fitted or top-dose-only effect; inactive = no such curve, though single readings can be large or run the other way; tested in mouse RAW 264.7 cells; note: potency is the fitted concentration of half-maximal effect; % is set by controls: 0 for no effect and ±100 for the full control effect; nearly all actives have a fitted effect of over 55% in size
* hit, by the source's call; u = inconclusive; x = not tested or not shown; ! = repeats disagree. Unless noted, calls come from the whole dose curve; as a rule, active = well fitted curve in the direction sought with a large enough effect; inconclusive = small, poorly fitted or top-dose-only effect, or another doubt; inactive = no such curve, though single readings can be large; an effect the other way counts as inactive or inconclusive.

item	Molecule	TDP1 cell CPT	TDP1 inh	DT40 TDP1 no CPT
1	COc1ccc(C(O)(CCN2CCCCC2)C2CCCCC2)cc1 (configuration not stated)	u	x	21µM*
2	Cc1nn(-c2ccccc2)c(N2CCCC2)c1/C=N/NC(=O)c1cc(-c2ccccn2)nc2ccccc12	21µM*	6%	12µM*
3	Cc1nn(-c2ccccc2)c(N2CCCC2)c1/C=N/NC(=S)Nc1ccccc1F	13µM*	-3%	u
4	Cc1nn(-c2ccccc2)c(N2CCCC2)c1/C=N/Nc1ccc(S(N)(=O)=O)cc1[N+](=O)[O-]	16µM*	11%	15µM*
5	Cc1nn(-c2ccccc2)c(N2CCCC2)c1/C=N/NC(=O)c1cc(-c2cccs2)nc2ccccc12	u	3%	15µM*
6	CCOc1ccc(C(=O)C[n+]2ccc(C(=O)NCCO)cc2)cc1	-1%	x	-1%
7	CSc1nn(Cc2ccc(F)cc2)c(N)c1S(=O)(=O)c1ccc(Cl)cc1	u	3%	16µM*
8	CSc1nn(CC(=O)Nc2ccc(C)cc2C)c(N)c1S(=O)(=O)c1ccc(Cl)cc1	u	10%	u
9	CCOc1ccc(NC(=O)Cn2nc(SC)c(S(=O)(=O)c3ccccc3)c2N)cc1	u	3%	u
10	CSc1nn(Cc2cccc(F)c2)c(N(C(C)=O)C(C)=O)c1S(=O)(=O)c1ccccc1	-22%	3%	u
11	CSc1nn(Cc2ccc(C)cc2)c(N)c1S(=O)(=O)c1ccccc1	21µM*	5%	23µM*
12	CSc1nn(Cc2ccc(Cl)cc2)c(N(C(C)=O)C(C)=O)c1S(=O)(=O)c1ccccc1	16µM*	-3%	u

item	miR-21 reporter	uPA surface inh
1	-1%	-10%
2	26%	22%
3	-27%	-5%
4	-12%	2%
5	19%	13%
6	-7%	1%
7	29%	x
8	24%	x
9	6%	x
10	13%	x
11	20%	x
12	24%	x

Next section.
item	Molecule	TDP1 cell CPT	TDP1 inh	DT40 TDP1 no CPT
13	CC(NC(=O)c1ccc(F)cc1)c1ccc2c(c1)CCCC2 (configuration not stated)	21µM*	4%	13µM*
14	O=c1c2c(-c3ccc(Cl)cc3)csc2nc2n1CCC2	-6%	3%	-20%
15	CCCCOC(=O)C1CCC[C@@H](C)N1 (some centres not stated)	-14%	5%	2%
16	COc1ccccc1NC(=O)c1ccccc1-c1nc(-c2ccccc2OC)no1	14µM*	0%	6.3µM*
17	COc1cc(NC(=O)c2cc(Cl)nnc2Cl)cc(OC)c1OC	u	0%	u
18	COc1cccc(NC(=O)c2ccccc2NS(C)(=O)=O)c1	u	5%	21µM*
19	COC(=O)c1ccc(NC(=O)c2ccccc2NS(C)(=O)=O)cc1	u	6%	u
20	COc1ccccc1Nc1ncc(C(=O)Nc2ccc(OC)c(OC)c2)c2ccccc12	18µM*	6%	16µM*!
21	CCOc1ccc(NC(=O)c2cnc(Nc3ccccc3OC)c3ccccc23)cc1	u	-3%	u
22	COc1cccc(NC(=O)c2cc(Cl)nnc2Cl)c1	0.52µM*	2%	8.2µM*
23	O=S(=O)(Cc1ccccc1)Nc1ccc(S(=O)(=O)N2CCCC2)cc1	5%	-2%	2%
24	COc1ccccc1NC(=O)c1cccs1	-6%	4%	-10%

item	miR-21 reporter	uPA surface inh
13	-8%	4%
14	-11%	-1%
15	-5%	4%
16	10%	x
17	16%	u
18	1%	-2%
19	-17%	-2%
20	-2%	4%
21	-43%	x
22	12%	-25%
23	3%	7%
24	-25%	-4%

Next results.
item	Molecule	TDP1 cell CPT	TDP1 inh	DT40 TDP1 no CPT
25	COc1ccccc1NC(=O)c1ccccc1NC(=O)c1cccs1	23µM*	4%	u
26	COc1ccccc1NC(=O)c1ccccc1NS(C)(=O)=O	u	2%	15µM*
27	COc1ccc(NC(=O)c2ccccc2NS(C)(=O)=O)cc1OC	21µM*	1%	10µM*
28	CCOC(=O)c1oc2nc3c(cc2c1N)CCCC3	7%	0%	-30%
29	COc1cc(OC)cc(C(=O)Nc2ccccc2-c2nnn(CC(N)=O)n2)c1	3%	0%	-9%
30	CC(C)c1nc(CNC(=O)C2CCC(=O)N(Cc3ccc(Cl)cc3)C2)no1 (configuration not stated)	-3%	0%	17%
31	COc1cc(OC)c(C2C(C(=O)Nc3ccc(C)cc3C)=C(C)Nc3ncnn32)cc1OC (configuration not stated)	u	-2%	-1%
32	COc1ccc(OC)c(/C=N/NC(=O)c2cnccn2)c1	4%	7%	-13%
33	COc1cc(C(=O)NC(=S)NC(C)C)cc(OC)c1OC	-26%	0%	u
34	COc1cc(C(=O)NC(=S)NNC(=O)c2cnccn2)cc(OC)c1OC	u	8%	u
35	CCCCOc1ccc(C(=O)NNC(=O)c2cnccn2)cc1OC	8.2µM*	0%	21µM*
36	O=C(NC(=S)NNC(=O)c1ccccc1O)c1cccnc1	u	1%	21µM*

item	miR-21 reporter	uPA surface inh
25	-4%	-4%
26	-5%	12%
27	-11%	-1%
28	-31%	-5%
29	4%	3%
30	-1%	-6%
31	-3%	-4%
32	3%	-3%
33	-11%	-1%
34	27%	10µM*
35	x	-5%
36	5%	0%

Next entries:
item	Molecule	TDP1 cell CPT	TDP1 inh	DT40 TDP1 no CPT
37	O=C(NC(=S)NNC(=O)c1ccc(Cl)cc1Cl)c1cccnc1	u	4%	u
38	COc1ccc(C(=O)NC(=S)NNC(=O)c2cnccn2)cc1	21µM*	5%	21µM*
39	Cc1ccc(/C(O)=C2\C(=O)C(=O)N(C)C2c2ccc(F)cc2)cc1 (configuration not stated)	-3%	x	-20%
40	CC1(c2nnc(-c3cccc(Cl)c3)o2)CC(c2ccccc2F)=NO1 (configuration not stated)	u	x	-26%
41	O=C(NC(=S)NC1CCCCCCCCCCC1)c1cccnc1	u	3%	15µM*
42	O=C(NC(=S)NNC(=O)c1cnccn1)c1ccc(Cl)cc1	8.2µM*	5%	u
43	O=C(NNC(=S)NC(=O)c1cccnc1)c1ccc(Cl)cc1	23µM*	8%	15µM*
44	O=C(Cc1ccc(Cl)cc1)NNC(=S)NC(=O)c1cccnc1	u	8%	-24%
45	CS(=O)(=O)c1ccc(Cl)c(NC(=O)COC(=O)CNC(=O)c2sc3ccccc3c2Cl)c1	-4%	4%	-6%
46	COc1cc(C(=O)NNC(=O)C2CCCC2)cc(OC)c1OC	13%	0%	-4%
47	Cc1cc(C)cc(NC(=O)c2nnn(Cc3cccc(Br)c3)c2N)c1	u	0%	u
48	Cc1ccccc1NC(=O)Cc1nc(COC(=O)c2cc([N+](=O)[O-])ccc2NCCO)cs1	u	x	u

item	miR-21 reporter	uPA surface inh
37	-21%	-3%
38	-4%	-1%
39	5%	-2%
40	x	-2%
41	1%	-4%
42	-10%	1%
43	-10%	-2%
44	-1%	6%
45	x	-1%
46	13%	7%
47	5%	x
48	x	2%

Laid out differently: 4 of the compounds above.
Each structure is followed by: TDP1 cell CPT	TDP1 inh	DT40 TDP1 no CPT	miR-21 reporter	uPA surface inh
[39] Cc1ccc(/C(O)=C2\C(=O)C(=O)N(C)C2c2ccc(F)cc2)cc1 (configuration not stated)
  -3%	x	-20%	5%	-2%
[40] CC1(c2nnc(-c3cccc(Cl)c3)o2)CC(c2ccccc2F)=NO1 (configuration not stated)
  u	x	-26%	x	-2%
[41] O=C(NC(=S)NC1CCCCCCCCCCC1)c1cccnc1
  u	3%	15µM*	1%	-4%
[42] O=C(NC(=S)NNC(=O)c1cnccn1)c1ccc(Cl)cc1
  8.2µM*	5%	u	-10%	1%

Assay outcomes from PubChem BioAssay.
